## AlphaSeq binding of Ab-14 heavy chain variants to a spike HR2 peptide

The measurements come from Li et al. 2023 (doi:10.1038/s41467-023-39022-2) through the FLAb antibody collection.

Antigen: PDVDLGDISGINAS, a 14-residue peptide of the SARS-CoV-2 spike HR2 region.

Parent: Ab-14, a human scFv built as VH, three GGGGS repeats, VL. Only the CDRs of the heavy chain vary.
VH: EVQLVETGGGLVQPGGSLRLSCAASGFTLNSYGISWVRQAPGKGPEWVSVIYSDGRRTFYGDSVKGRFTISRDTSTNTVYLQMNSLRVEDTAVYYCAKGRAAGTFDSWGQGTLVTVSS
VL: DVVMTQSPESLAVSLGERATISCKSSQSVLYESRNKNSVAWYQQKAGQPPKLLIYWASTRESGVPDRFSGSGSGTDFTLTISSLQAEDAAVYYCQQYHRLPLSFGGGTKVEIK

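The parent was found by panning a naive human phage display library on the peptide. The variants were designed computationally from a first round of random CDR variants and then made and measured. Group labels follow the data file (Ctrl: baseline library sampled from a position-specific scoring matrix, with some repeated check sequences; Rand: our label for a block that the file lists under HC and that is probably the random mutants of the ten best first-round binders; GP: Gaussian process model; GPLM: also part of the Gaussian process libraries; HC: hill climbing; Gen: genetic algorithm; Gibbs: Gibbs sampling; a sequence that several methods proposed may carry one label only). Affinity was read by AlphaSeq, a pooled yeast mating assay with surface-displayed partners. Binding brings cells together so that they mate, and sequencing counts the barcode pairs among the diploids. Scores were corrected for input abundance and mapped to Kd with protein pairs of known affinity run in the same pool. There are six technical replicates.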

Substitutions are numbered in sequence along the VH above, starting at 1 (not Kabat). This list holds designs with at most six substitutions. Values are apparent Kd, the geometric mean of the replicates that gave a signal; lower means stronger binding. "nd" means that the variant was in the library but no mating with the target was seen in any replicate; the authors take this as a sign of poor binding, and no number exists. The parent sequence was in this pool as ten entries: three were never detected, three once, and four in most replicates, with averages from 2.2 nM to 240 nM. The range of this assay differs from that of the first round, and the authors advise against merging the two. As a blank, each scFv also met three strains without target: over all heavy chain designs, 1% of these pairings were detected, typically at 120 nM and seldom below 7.0 nM. The authors' rule: three or more of the six replicates give a measured affinity, fewer mean a poor binder.

Variant T28D/A101T/T104S/D106W [GPLM_HC] showed nd (0 of 6 replicates). Variant G26D/T28S/F59A [GP_Gen] gave 4.3 nM (6 of 6 replicates). Variant T28S/G61T/A101Q [GPLM_Gen] gave 1.9 nM (6 of 6 replicates). Variant T28S/R100T/A101N [GP_Gen] showed 1.4 nM (6 of 6 replicates). Variant F59I/G61T [Ctrl] gave 130 nM (1 of 6 replicates). For S63A/R100Q [Ctrl], the assay gave 220 nM (5 of 6 replicates).

With N30Q/S53A/K65V/R100Q/A101S [Ctrl] the result was 48 nM (5 of 6 replicates). With T28A/R56V/R100S/A102K/G103N [Ctrl] the result was nd (0 of 6 replicates). Variant T28S/S31W/G61I/R100K [GPLM_Gen] showed nd (0 of 6 replicates). With S31E/A101I/S107L [GPLM_Gen] the result was 6.6 nM (5 of 6 replicates). Variant T28N/L29I [Ctrl] gave 570 pM (3 of 6 replicates). Variant T28S/N30K/G61A/R100K [GPLM_Gen] gave 9.2 nM (3 of 6 replicates).

With T28E/G61K/A101T/S107A [GP_Gen] the result was 1.4 nM (6 of 6 replicates). Variant S31E/G103L/D106W/S107F [GPLM_HC] gave nd (0 of 6 replicates). Variant G26M/T28N/S53A/R100N [GP_Gibbs] showed 12 nM (5 of 6 replicates). For T28E/S31E/G61V/A101Q [GP_Gibbs], the assay gave 2.0 nM (6 of 6 replicates). Variant I34G/K65D/R100T/A101T/T104S [Ctrl] gave nd (0 of 6 replicates). Variant T28S/S31M/F59S/G61I [GP_HC] showed 3.2 nM (6 of 6 replicates).

Variant T28P/S31E/S53A [GP_HC] gave 230 pM (6 of 6 replicates). For L29I/S31E/F59A [Ctrl], the assay gave 730 pM (6 of 6 replicates). For T28E/G99D/S107L [Ctrl], the assay gave nd (0 of 6 replicates). Variant N30D/G61A/A101E [GPLM_Gen] gave 1.7 nM (6 of 6 replicates). For R56E/A102T/S107T [Ctrl], the assay gave nd (0 of 6 replicates). Variant L29P/S31D/F105K [Ctrl] showed nd (0 of 6 replicates).

For F27E/S31Q/I34F/S35L/G61S/T104F [Rand], the assay gave 340 nM (1 of 6 replicates). Variant G61Q/A102K [Ctrl] showed nd (0 of 6 replicates). For Y32F/G61R [Ctrl], the assay gave nd (0 of 6 replicates). For F27V/T28Q/S31D/R56E/A101G [Ctrl], the assay gave nd (0 of 6 replicates). Variant N30T/R56K [Ctrl] gave 52 nM (4 of 6 replicates). For S31D/G55P/S63H/G103L/T104S/D106E [Rand], the assay gave nd (0 of 6 replicates).

Variant S31D/G61Q/A101V/D106W [GP_HC] showed 6.7 nM (1 of 6 replicates). Variant T28Q/S31E/R100E [GP_Gen] showed 8.8 nM (6 of 6 replicates). Variant K65D/R100T/A101E [Ctrl] showed 4.0 nM (6 of 6 replicates). For T28D/G61K/R100A [GP_Gibbs], the assay gave 2.2 nM (6 of 6 replicates). Variant F27N/T28E/N30D [Ctrl] gave 100 nM (2 of 6 replicates). For T28H/R56M/G61S/A101Q [GP_Gibbs], the assay gave 18 nM (6 of 6 replicates).

Variant T28N/N30E/R100N [Ctrl] showed 8.8 nM (5 of 6 replicates). Variant T28D/R100K/A101T/S107V [GPLM_Gibbs] showed 1.3 nM (6 of 6 replicates). For T58V/G61S/D62N [Ctrl], the assay gave 40 nM (3 of 6 replicates). For T28S/G61S/R100Q/A101E [GP_Gen], the assay gave 1.1 nM (6 of 6 replicates). Variant G61L/G103F [Ctrl] gave 25 nM (3 of 6 replicates). Variant G26M/T28S/G61A/R100E [GPLM_Gen] showed 26 nM (6 of 6 replicates).

For T28D/G61D/A101T/S107D [GP_Gibbs], the assay gave 2.9 nM (6 of 6 replicates). For T28E/S31E/S63A/A101T [GP_Gen], the assay gave 900 pM (6 of 6 replicates).

The opening 5 entries, copied out:

| changes | group | apparent Kd | seen in |
|---|---|---|---|
| T28D/A101T/T104S/D106W | GPLM_HC | nd | 0 of 6 |
| G26D/T28S/F59A | GP_Gen | 4.3 nM | 6 of 6 |
| T28S/G61T/A101Q | GPLM_Gen | 1.9 nM | 6 of 6 |
| T28S/R100T/A101N | GP_Gen | 1.4 nM | 6 of 6 |
| F59I/G61T | Ctrl | 130 nM | 1 of 6 |